Curated experimental data: water solubility values

Data: OPERA 2.9 data sets, kmansouri/OPERA on GitHub.

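The numbers are reported measurements, compiled and curated for the OPERA QSAR suite. The files give a single number for a compound and property, which may rest on several reports. How each value was measured is not recorded, so precision varies. The measured form (salt, isomer or mixture) is not always the one drawn. Some upstream entries may be estimates or bounds without being marked so.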

Solubility in water is on a log10 molar scale (set defined at 25 °C). Cells with "–" have no entry in this list.

| structure (SMILES) | name | log solubility (log10 mol/L) |
|---|---|---|
| CC(C)NCC(O)COc1cccc2ccccc12 (stereo not drawn) | Propranolol | -3.23 |
| N[C@@H](CSCCCCSC[C@H](N)C(=O)O)C(=O)O | S,S-BUTANEDIYLDI-L-CYSTEINE | -3.627 |
| CC(C)=COC(=O)c1ccccc1C | 3-Methyl-2-butenyl salicylate | -4.404 |
| O=C(Oc1ccccc1C(=O)O)c1ccccc1O | Salsalate | -3.021 |
| NS(=O)(=O)c1ccc(=O)[nH]c1 | 6-Oxo-1H-pyridine-3-sulfonamide | -1.843 |
| Nc1ncnc2c1[n+]([O-])cn2[C@@H]1O[C@H](CO)[C@@H](O)[C@H]1O | – | -4.611 |
| C#C[C@]1(O)CC[C@H]2[C@@H]3CCC4=CC(=O)CC[C@@H]4[C@H]3C(=C)C[C@@]21CC | Etonogestrel | -4.644 |
| CCOC(=O)/C(Cl)=C/c1cc(N2C(=O)C3=C(CCCC3)C2=O)ccc1Cl | Cinidon-ethyl | -6.839 |
| CC(O)CN(N=Cc1ccc([N+](=O)[O-])o1)C(N)=O (stereo not drawn) | – | -2.631 |
| O=C(O)CCCCCCCC(C(=O)O)(c1ccccc1)c1ccccc1 | 2,2-Diphenyl-decanedioic acid | -3.939 |
| CSc1ncc2[nH]cnc2n1 | 2-Methylthiopurine | -2.547 |
| CC(C1CC1)C(O)c1ccc(Cl)cc1 (stereo not drawn) | 1-(4-Chlorophenyl)-2-cyclopropyl-1-propanol | -3.244 |
| Clc1c(Cl)c(Cl)c(Oc2c(Cl)c(Cl)c(Cl)c(Cl)c2Cl)c(Cl)c1Cl | Decachlorodiphenyl ether | -12.95 |
| CC(=O)C=CC1C(C)=CCC(C)C1(C)C (stereo not drawn) | alpha-Irone | -3.803 |
| CC(C)CCOC(=N)O | 3-Methylbutyl hydrogen carbonimidate | -1.44 |
| CCN(CC)c1cccc(NC(C)=O)c1 | Acetamide, N-[3-(diethylamino)phenyl]- | -2.469 |
| CC(=O)OCC(=O)[C@@]12OC3(CCCC3)O[C@@H]1C[C@H]1[C@@H]3CCC4=CC(=O)C=C[C@]4(C)[C@@]3(F)[C@@H](O)C[C@@]12C | Amcinonide | -4.812 |
| C=CC(F)(F)C(F)(F)F | 3,3,4,4,4-Pentafluorobut-1-ene | -3.488 |
| NC1=CC(=Nc2ccc(N)cc2)C(N)=CC1=Nc1ccc(N)cc1 | Bandrowski's base | -1.143 |
| N[C@@H](Cc1ccc(O)c(I)c1)C(=O)O | 3-Iodo-L-tyrosine | -2.01 |
| CC(C)(C)CC(C)(C)c1cc(Cc2cc(C(C)(C)CC(C)(C)C)cc(-n3nc4ccccc4n3)c2O)c(O)c(-n2nc3ccccc3n2)c1 | Bisoctrizole | -7.974 |
| CC(=O)C(N=Nc1ccc(C)cc1[N+](=O)[O-])C(=O)Nc1ccccc1 (stereo not drawn) | C.I. Pigment Yellow 1 | -7.418 |
| CCCCCCOC(=O)CCCCC | Hexyl hexanoate | -5.324 |
| C=C(C)C(=O)OCCCCCCOc1ccc(/C=C/C(=O)OC)cc1 | – | -8.062 |
| CC(C)=CCCC(C)CC#N (stereo not drawn) | 3,7-Dimethyloct-6-enenitrile | -3.108 |
| O=S(Cc1ccccc1)Cc1ccccc1 | Benzyl sulfoxide | -2.859 |
| O=C(O)CC(O)(C(=O)O)c1ccccc1 (stereo not drawn) | 2-Hydroxy-2-phenylbutanedioic acid | -1.127 |
| O=C(O)c1ccccc1Nc1cccc(C(F)(F)F)c1 | Flufenamic acid | -4.821 |
| Cc1nn(-c2ccccc2)c(=O)[c-]1/N=N/c1ccccc1C(=O)[O-].Cc1nn(-c2ccccc2)c(=O)[c-]1/N=N/c1ccccc1C(=O)[O-].[Cr+3].[H+] | Acid Yellow 121 | -3.61 |
| CCCCCN1C(=O)CCC1=O | 2,5-Pyrrolidinedione, 1-pentyl- (9CI) | -1.105 |
| CCCCCCCCCCCCCCCCCC(=O)OC[C@@H](OC(=O)CCCCCCCCCCCCCCCCC)[C@H]1OC[C@H](O)[C@H]1OC(=O)CCCCCCCCCCCCCCCCC | Sorbitan tristearate | -7.285 |
| CC(=O)OCn1ncc2c(O)ncnc21 | ALLOPURINOL, 1-[(ACETYLOXY)METHYL]- | -2.555 |

Extract of 3 entries:

| structure (SMILES) | name | log solubility (log10 mol/L) |
|---|---|---|
| CC(C)NCC(O)COc1cccc2ccccc12 (stereo not drawn) | Propranolol | -3.23 |
| CC(=O)C=CC1C(C)=CCC(C)C1(C)C (stereo not drawn) | alpha-Irone | -3.803 |
| O=C(O)c1ccccc1Nc1cccc(C(F)(F)F)c1 | Flufenamic acid | -4.821 |